The results in this text go back to ChEMBL document CHEMBL1131586, “New antipsychotic agents with serotonin and dopamine antagonist properties based on a pyrrolo[2,1-b][1,3]benzothiazepine structure” (J Med Chem, 1998).

By UniProt entry, the sequences of proteins in these tests, tags left out.
UniProt P18901, whole entry: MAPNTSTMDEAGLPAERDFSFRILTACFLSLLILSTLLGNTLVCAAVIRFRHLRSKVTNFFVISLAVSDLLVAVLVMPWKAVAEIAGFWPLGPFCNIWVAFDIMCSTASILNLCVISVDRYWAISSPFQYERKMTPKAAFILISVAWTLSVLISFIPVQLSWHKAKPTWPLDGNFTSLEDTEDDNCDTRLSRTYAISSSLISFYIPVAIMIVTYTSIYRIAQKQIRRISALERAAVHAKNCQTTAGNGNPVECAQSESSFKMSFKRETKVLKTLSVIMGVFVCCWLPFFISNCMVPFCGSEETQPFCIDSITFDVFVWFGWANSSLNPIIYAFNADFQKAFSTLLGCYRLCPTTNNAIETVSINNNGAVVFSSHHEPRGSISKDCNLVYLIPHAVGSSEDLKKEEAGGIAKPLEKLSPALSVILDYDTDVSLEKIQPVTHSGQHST

This experiment addresses D(1A) dopamine receptor (Rattus norvegicus, UniProt P18901).

One may read the Ki as the dissociation constant of the complex between target and ligand, obtained from inhibition or displacement. Turning to `CN1CCN(C2Cn3cccc3Sc3ccc(Cl)cc32)CC1` (stereo in doubt; (+)3b), the inhibitory constant (Ki) was 15.8 nM.
